Source: patent US12442827B2, “Detection and treatment of conditions related to luteinizing hormone/follicle-stimulating hormone (LH/FSH) levels” (UNIVERSITY OF NORTH TEXAS HEALTH SCIENCE CENTER AT FORT …, priority 2019, dated 2025)

System: GnRH-Receptor
Experiment: GnRH-Receptor expression after FSH and LH stimulation of HCFs and HKCs (Western blot)
Type: cell-based, human
Details: 48 hours, FSH 2.5 and 10 miu/ml, LH 5 and 35 miu/ml, in a dose dependent manner, FIGS. 10A and 10B
Method: In FIGS. 10A and 10B HCFs and HKCs were seeded in 12-well plates at 5×10^5 cells/well in regular media. 24 hours later media was replaced for treatment media (regular media supplemented with the treatment). The treatments consisted of: FSH: 2.5 and 10 miu/ml; LH: 5 and 35 miu/ml. After 48 hours treatment finished and all the wells were wash with PBS and proteins were extracted using 1 ml of RIPA buffer 1×. Bradford assay (Thermo scientific, IL, USA) was carried out to determine the protein concentration and normalize the samples. For western blot analysis samples were mixed with loading buffer and equal amounts of protein were loaded (25 μg per lane) on a 4-20% Tris-Glycine gel (Novex, Life technologies, Carlsbad, CA) and electrophoresed at 135-140V for 1.5 hour. Each sample was run single. Thereafter, the gel was transferred on to a nitrocellulose membrane (Novex, Nitrocellulose membrane, Life Technologies, Carlsbad, CA), at 100V for 1 hour on ice. Finally, the membranes were blocked in milk (5% milk in TBST; Thermo scientific, IL, USA) for 1 hour and incubated overnight in the rocker at 4° C. with the primary antibody at 1:250 dilution. The primary antibodies used for this experiment were rabbit polyclonal to LHR (ab125214, Abcam, Cambridge, MA), and Rabbit polyclonal GNRHR (ab183079, Abcam, Cambridge, MA). […]

| Substance | GnRH-Receptor modulation |
| --- | --- |
| FSH: gonadotropin, glycoprotein polypeptide hormone synthesized and secreted by the gonadotropic cells of the anterior pituitary gland | modulated |
| LH: hormone produced by gonadotropic cells in the anterior pituitary gland | modulated |
